Results reported in US20030049284A1, “Method of increasing the solubility of alphahydrocarboxilic salts, and products obtained by the method” (priority 2001, published 2003).

Key:
[1] = water at 20° C.; literature value (index Merck Ref. 1675; F.C.C. IV Ed. Page 153); cited from earlier work
[2] = Solubility in water (comparative data and examples); assay type: physicochemical; settings: water at the same temperature (20-25° C.)

## Calcium gluconate
[1]
  solubility in water: 30 gr/1000 ml
[2]
  limited solubility in water: 30-80 gr./l
